scFv variants of Ab-14 (heavy chain) against a SARS-CoV-2 spike peptide

The measurements come from Engelhart et al. 2022 (doi:10.1038/s41597-022-01779-4) through the FLAb antibody collection.

Target peptide (SARS-CoV-2 spike, HR2 region): PDVDLGDISGINAS

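Variants in AAYL49 differ from the parent at up to three CDR positions; double and triple changes were sampled at random. The assay is AlphaSeq: two haploid yeast populations carry antibody and antigen on their surface. After mating in shaken culture at 30 °C for 16 h, diploids were selected and their barcode pairs sequenced. Read counts were normalised to the haploid input and turned into Kd by a linear fit to BCL2-family pairs of known affinity, for each replicate. There are three technical replicates.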

Parent: Ab-14, a human scFv built as VH, a 15-residue (Gly4Ser)3 linker, VL. Only the CDRs of the heavy chain vary.
VH: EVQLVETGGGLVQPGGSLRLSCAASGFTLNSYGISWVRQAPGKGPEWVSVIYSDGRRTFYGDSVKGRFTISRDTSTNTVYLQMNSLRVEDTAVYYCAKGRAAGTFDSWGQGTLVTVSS
VL: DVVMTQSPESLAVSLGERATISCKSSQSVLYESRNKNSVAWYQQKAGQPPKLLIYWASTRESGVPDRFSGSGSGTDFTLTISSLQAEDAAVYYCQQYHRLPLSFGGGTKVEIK

Substitutions are numbered in sequence along the VH above, starting at 1 (not Kabat). Every variant below is changed at V50 of the VH (sequential numbering). Values are apparent Kd, the geometric mean of the replicates that gave a signal; lower means stronger binding. Where no diploid with the target was found in any replicate, the entry reads "nd": below detection, most likely a poor binder, though not proof of it. Nonspecific signal, from three strains lacking the peptide, appeared in 15% of pairings of library AAYL49, centred on 11 µM (5% of these signals below 680 nM); values are not corrected for it.

With S35D/V50R/A102T the result was nd (0 of 3 replicates). For G33D/V50A/R57D, the assay gave nd (0 of 3 replicates). With V50T/Y60S/G99D the result was 12 µM (1 of 3 replicates). Variant S35G/V50I/A101S showed nd (0 of 3 replicates). Variant V50G/G61L/D62K gave 310 nM (1 of 3 replicates). Variant V50I/I51C/G103D showed nd (0 of 3 replicates). Variant V50S/G61L/A101D gave 8.5 µM (1 of 3 replicates). Variant I34M/V50I/Y52G gave nd (0 of 3 replicates).

Variant V50H/G99E/T104D gave 48 µM (1 of 3 replicates). For G26M/V50F/D106H, the assay gave nd (0 of 3 replicates). For V50F/T58D/S107K, the assay gave 380 µM (1 of 3 replicates). Variant G26W/V50C/D106S gave nd (0 of 3 replicates). Variant V50A/Y52N/S107A gave 110 µM (2 of 3 replicates). With G26I/N30W/V50I the result was 2.9 µM (1 of 3 replicates). With I34H/V50I the result was 20 µM (1 of 3 replicates). With N30W/V50Q/R56V the result was nd (0 of 3 replicates).

With V50H/R57I/G61L the result was nd (0 of 3 replicates). Variant Y32F/V50T/V64M gave nd (0 of 3 replicates). Variant V50A/G55M/D62H showed nd (0 of 3 replicates). With V50Q/A101I the result was nd (0 of 3 replicates). For V50I, the assay gave 25 nM (3 of 3 replicates). Variant N30P/S35F/V50H gave 19 µM (1 of 3 replicates). With G26T/V50A/R57A the result was 1.1 µM (1 of 3 replicates). Variant V50E/Y52V/S63T gave nd (0 of 3 replicates).

With I34Y/V50L/T58E the result was 590 µM (1 of 3 replicates). With V50E the result was 1.9 µM (1 of 3 replicates). For N30L/V50G/F105M, the assay gave nd (0 of 3 replicates). Variant V50A/G61S/R100I gave 4.3 µM (1 of 3 replicates). Variant V50A/I51Y/D62E showed nd (0 of 3 replicates). For G33N/V50P/Y52E, the assay gave nd (0 of 3 replicates). Variant V50M/R56P gave nd (0 of 3 replicates). Variant V50I/D54F gave 2.8 µM (1 of 3 replicates).

With V50A/G103S/D106V the result was nd (0 of 3 replicates). Variant G26T/V50D/S53V showed nd (0 of 3 replicates). With S31V/V50T/R57K the result was 21 µM (2 of 3 replicates). With Y32A/V50C the result was 7.2 µM (1 of 3 replicates). For I34L/V50T/G55H, the assay gave 9.2 µM (1 of 3 replicates). Variant S35L/V50I/A101S gave 9.6 µM (1 of 3 replicates). Variant V50I/G61R gave 6.4 µM (3 of 3 replicates). Variant L29W/V50Q/A101V gave nd (0 of 3 replicates).

Variant F27T/V50I showed 37 µM (1 of 3 replicates). Variant G26M/T28M/V50G gave nd (0 of 3 replicates). For S31E/V50M/A102E, the assay gave nd (0 of 3 replicates). With V50S/D62L/V64E the result was nd (0 of 3 replicates). Variant V50E/F59E/D106F gave 4.1 µM (1 of 3 replicates). With V50P/V64Y/D106P the result was nd (0 of 3 replicates). With V50E/S53G/D54I the result was nd (0 of 3 replicates). Variant V50P gave 430 nM (1 of 3 replicates).

Variant V50P/I51L/A102H showed nd (0 of 3 replicates). Variant F27G/V50L showed 1.0 µM (2 of 3 replicates). With V50N/T58E/Y60H the result was 14 µM (1 of 3 replicates). With F27Y/V50R the result was 11 µM (1 of 3 replicates).

The opening 3 entries, copied out:

| changes | Kd (apparent) | replicates with signal |
|---|---|---|
| S35D/V50R/A102T | nd | 0 of 3 |
| G33D/V50A/R57D | nd | 0 of 3 |
| V50T/Y60S/G99D | 12 µM | 1 of 3 |

Parent in this assay: reference entry 4.4 nM, copy in this library 13 µM (one replicate of three).